We go through 1 molecule from patent US20220324959A1 (Janssen / Centocor, published 2022).

Amino acid sequences for entries named in this document (tags omitted). Residues count along the entry.
UniProt P01375, 77-233 limits assumed: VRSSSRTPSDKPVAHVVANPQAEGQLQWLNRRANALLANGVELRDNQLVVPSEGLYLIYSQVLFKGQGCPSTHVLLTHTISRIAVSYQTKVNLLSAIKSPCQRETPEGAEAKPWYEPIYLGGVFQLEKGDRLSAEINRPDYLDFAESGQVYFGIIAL

This test deals with T1, recombinant human TNFα (human, UniProt P01375 77-233, 125I label in the receptor blocking assay).
T1 construct: also called huTNFα; tumor necrosis factor alpha
Briefly: competition radioligand assay: cA2 spiked into anti-IL-18 control supernatant, preincubated with 5 ng/ml 125I-TNFα, then binding of 125I-TNFα to plate-coated p55-sf2 (TNF receptor/IgG fusion) counted as cpm bound.

B1: chimeric antibody cA2 (antibody, V domains shown)
VH: EVKLEESGGGLVQPGGSMKLSCVASGFIFSNHWMNWVRQSPEKGLEWVAEIRSKSINSATHYAESVKGRFTISRDDSKSAVYLQMTDLRTEDTGVYYCSRNYYGSTYDYWGQGTTLTVS
VL: DILLTQSPAILSVSPGERVSFSCRASQFVGSSIHWYQQRTNGSPRLLIKYASESMSGIPSRFSGSGSGTDFTLSINTVESEDIADYYCQQSHSWPFTFGSGTNLEVK
In the case of B1, the “IC50 (read off the curve)” value is about 10 ng/mL.
